# Results published in ChEMBL document CHEMBL4364305, “Medicinal leech antimicrobial peptides lacking toxicity represent a promising alternative strategy to combat antibiotic-resistant pathogens” (Eur J Med Chem, 2019).
# Assays:
# [1] = tested on: Escherichia coli; assay: Antibacterial activity against Escherichia coli MG1655 assessed as reduction in bacterial cell growth incubated for 24 hrs by microtiter dilution method; format: functional; details: MG1655, 24 h
# [2] = tested on: Bacillus subtilis; assay: Antibacterial activity against Bacillus subtilis 168 HT assessed as reduction in bacterial cell growth incubated for 24 hrs by microtiter dilution method; format: functional
smiles,measurement,setting,value
CC[C@H](C)[C@H](NC(=O)CN)C(=O)NCC(=O)N[C@@H](C)C(=O)N[C@H](C(=O)N[C@@H](CC(C)C)C(=O)N[C@@H](CCCCN)C(=O)N[C@H](C(=O)N[C@@H](CC(C)C)C(=O)N[C@H](C(=O)N[C@H](C(=O)NCC(=O)N[C@@H](CC(C)C)C(=O)N1CCC[C@H]1C(=O)N[C@@H](C)C(=O)N[C@@H](CC(C)C)C(=O)N[C@H](C(=O)N[C@@H](CO)C(=O)N[C@@H](Cc1c[nH]c2ccccc12)C(=O)N[C@H](C(=O)N[C@@H](CCCCN)C(=O)N[C@@H](CCCNC(=N)N)C(=O)N[C@@H](CCCCN)C(=O)N[C@@H](CCCNC(=N)N)C(=O)N[C@@H](CCC(N)=O)C(=O)N[C@@H](CCC(N)=O)C(N)=O)[C@@H](C)CC)[C@@H](C)CC)[C@@H](C)O)[C@@H](C)O)C(C)C)C(C)C [MELITTIN],MIC,[1],5.7 µM
same,MIC,[2],1.5 µM
